The assay has as its target T1, FAM-labeled Aβ42 peptide (carboxy-fluorescein conjugated to the N' terminus), prepared as ADDL oligomers (carboxy-fluorescein (FAM) on the N-terminus; the labelled peptide was mixed with wild type Aβ42 in a 1:2 molar ratio).
T1 construct: Aβ42, the 42-residue β-amyloid peptide cut from the amyloid precursor protein (APP); Mixed with unlabelled wild type Aβ42 (1:2 molar ratio), then incubated at 4 °C for 24 hrs to oligomerise (ADDLs); also called FAM-Aβ42; FAM tagged-Aβ; source: bought: Anaspec (FAM-Aβ42); Aβ peptides from BioSource
In words: fluorescence polarisation; in solution; FAM-Aβ42 probe (ADDL oligomers) fixed at 200 nM, recombinant PDK-1 or Akt-1 titrated 0-10 μM (Akt 0 to 12.5 μM) until saturation; 30 min, 25°C; 100 mM NaCl, 20 mM phosphate pH7.4, 2 mM DTT, 0.1% BSA, 2% DMSO; 2 experiments each. The note with it: both partners purified. For orientation: In fluorescence polarisation assays a small probe gives low polarisation when free and higher when bound to something large.

B1: Recombinant human Akt1 (inactive) (enzyme, UniProt P31749 1-480, looked up)
chain: MSDVAIVKEGWLHKRGEYIKTWRPRYFLLKNDGTFIGYKERPQDVDQREAPLNNFSVAQCQLMKTERPRPNTFIIRCLQWTTVIERTFHVETPEEREEWTTAIQTVADGLKKQEEEEMDFRSGSPSDNSGAEEMEVSLAKPKHRVTMNEFEYLKLLGKGTFGKVILVKEKATGRYYAMKILKKEVIVAKDEVAHTLTENRVLQNSRHPFLTALKYSFQTHDRLCFVMEYANGGELFFHLSRERVFSEDRARFYGAEIVSALDYLHSEKNVVYRDLKLENLMLDKDGHIKITDFGLCKEGIKDGATMKTFCGTPEYLAPEVLEDNDYGRAVDWWGLGVVMYEMMCGRLPFYNQDHEKLFELILMEEIRFPRTLGPEAKSLLSGLLKKDPKQRLGGGSEDAKEIMQHRFFAGIVWQHVYEKKLSPPFKPQVTSETDTRYFDEEFTAQMITITPPDQDDSMECVDSERRPHFPQFSYSASGTA
notes: printed size 60 kDa; Commercial protein; also called PKBα; Protein kinase B; source: bought: Amsbio
By IC50 is commonly meant the concentration that gives 50% inhibition. On to B1, for which the 50% inhibitory concentration (IC50) was ~2000 nM.

Source of the values: PMC8782417, “A PDK-1 allosteric agonist neutralizes insulin signaling derangements and beta-amyloid toxicity in neuronal cells and in vitro” (PLoS ONE, 2022).
